Assay results published in patent US7378408B2, “Methods of treatment and formulations of cephalosporin” (Pfizer Inc., priority 2001, dated 2008).

How the values were obtained:
[1] = test system: pathogenic Staphylococci; test: Populations of pathogenic Staphylococci in healthy dogs; settings: single administration of 8 mg/kg, for four weeks, compared to non-treated control animals
[2] = test system: Pasteurella multocida; test: Experimentally induced abscess model study in cats; type: in vivo; settings: 14 days after a single administration of 8 mg/kg
[3] = test system: Bacteriodes fragilis; test: Experimentally induced abscess model study in cats; type: in vivo; settings: 14 days after a single administration of 8 mg/kg

SMILES: CO/N=C(\C(=O)N[C@@H]1C(=O)N2C(C(=O)O)=C([C@@H]3CCCO3)CS[C@H]12)c1csc(N)n1 [Compound I, (6R,7R)-7-[[(2Z)-(2-amino-4-thiazolyl)(methoxyimino)acetyl]amino]-8-oxo-3-[(2S)-tetrahydro-2-furanyl]-5-thia-1-azabicyclo[4.2.0]oct-2-ene-2-carboxylic acid, monosodium salt]
- reduction of the populations of pathogenic Staphylococci [1]: significant reduction
- reduction in the numbers of Pasteurella multocida bacteria [2]: substantial reduction
- reduction in the numbers of Bacteriodes fragilis bacteria [3]: substantial reduction

Structures can show the parent of a compound that is named as a salt.
